Measured affinities in a library of Ab-95 light chain variants

The measurements come from Engelhart et al. 2022 (doi:10.1038/s41597-022-01779-4) through the FLAb antibody collection.

Binding partner: SARS-CoV-2 spike HR2 peptide, sequence PDVDLGDISGINAS.

The variants keep the heavy chain, the linker and the frameworks of Ab-95 (scFv order VH, three GGGGS repeats, VL).
VH: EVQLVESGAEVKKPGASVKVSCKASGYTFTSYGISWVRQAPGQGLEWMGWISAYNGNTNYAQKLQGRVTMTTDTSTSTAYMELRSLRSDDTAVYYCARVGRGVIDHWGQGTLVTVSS
VL: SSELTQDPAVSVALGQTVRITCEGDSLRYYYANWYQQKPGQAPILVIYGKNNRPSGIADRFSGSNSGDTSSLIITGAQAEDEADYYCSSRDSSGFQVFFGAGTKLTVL

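The starting antibody came from a phage panning campaign against this peptide. AAYL52 was designed without a model: most single CDR substitutions and a random sample of double and triple ones. Affinity was read by AlphaSeq, a pooled yeast mating assay with surface-displayed partners. After mating in shaken culture at 30 °C for 16 h, diploids were selected and their barcode pairs sequenced. Scores were corrected for input abundance and mapped to Kd with protein pairs of known affinity run in the same pool. The assay was run in three technical replicates.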

Each variant is given by its three light chain CDRs, as the data file delimits them; those of the parent are EGDSLRYYYAN, GKNNRPS, SSRDSSGFQVF.
Scale: log10 of Kd in nM, estimated from mating counts; low values are strong binders.
Replicates are averaged; those with no signal do not enter the mean.
Where no diploid with the target was found in that replicate, the entry reads "ND": below detection, most likely a poor binder, though not proof of it.

CDR-L1	CDR-L2	CDR-L3	log10 Kd (nM) by replicate	mean log10 Kd (nM)	empty controls
EGDSLRYYYAN	GKNNRPI	SSRQLSGFQVF	2.98 / 3.29 / 4.08	3.45	2 of 9 (3.45)
EGDSLRYYYAN	GKNFRPS	ISRDSSGFQLF	3.48 / 4.19 / ND	3.83	3 of 9 (3.87)
EGDSLRYYYAN	HKNNRPS	STRDDSGFQVF	3.34 / ND / 2.77	3.05	1 of 9 (3.60)
EGDSLHYYYAN	GKNNRPS	SSRRSSGFQVF	4.13 / 3.31 / ND	3.72	2 of 9 (4.05)
EGDSLRYYYAN	GKNNRPS	SSRDASLFRVF	ND / ND / ND	ND	2 of 9 (3.49)
TGDSLRYYYAN	GKNNRPS	SSRDHSWFQVF	ND / ND / ND	ND	3 of 9 (4.56)
EGDSLRYYYAN	GKNNLPS	SSGDSSGFQVF	ND / ND / ND	ND	0 of 9
VGDSLRYYYSN	GKNNRPS	SSRDSSGNQVF	3.50 / 2.76 / 2.71	2.99	2 of 9 (3.93)
EGDSLRYYYAN	GKNNRPS	SSRDSYGFQVF	ND / ND / ND	ND	0 of 9
EGDSLRAYYAN	YKNNRPS	SSRDSSNFQVF	3.74 / 5.63 / 4.56	4.64	5 of 9 (4.18)
EGDSSRYYYAN	GSNNRPS	SSRDSSGFQVF	4.31 / 3.83 / ND	4.07	3 of 9 (4.11)
EGDSLRYYYAN	GWNNRPS	SSRHSSGFQVF	5.20 / 3.56 / 3.28	4.01	0 of 9
EGDSTRYYYAN	GKNNRPI	YSRDSSGFQVF	4.60 / 3.53 / 4.10	4.07	3 of 9 (3.62)
EGDRHRYYYAN	GKSNRPS	SSRDSSGFQVF	4.08 / ND / 4.25	4.16	2 of 9 (4.21)
EGDSLGYYYAN	GKNNRPS	SDRDSSGYQVF	3.86 / 3.24 / 2.90	3.33	2 of 9 (4.21)
EGDSLRFYYAP	WKNNRPS	SSRDSSGFQVF	5.31 / 3.65 / ND	4.48	3 of 9 (4.67)
EGDSLRYYYAN	GKNNRPS	SSRDSSCFQSL	ND / 3.28 / ND	3.28	4 of 9 (3.40)
EGDSLCYYYAN	GKNNRPS	SSQDSSNFQVF	3.59 / 3.19 / 3.60	3.46	4 of 9 (4.73)
EGDGLRYSYAN	GKNNRPS	SSRDSSGFQVF	1.51 / 1.40 / 1.11	1.34	6 of 9 (4.51)
EGDKLPYRYAN	GKNNRPS	SSRDSSGFQVF	3.07 / 2.71 / 3.50	3.10	4 of 9 (4.27)
EGDSLRYQYAN	GKNNRPS	SSRDSSIFQVH	1.22 / 1.06 / 0.48	0.92	3 of 9 (4.86)
EGDSLAYYYAN	GKNNRPS	SSRWSSGFQHF	4.04 / 3.37 / 4.29	3.90	2 of 9 (4.88)
EGDSLRYQYYN	GKNNRPS	SSRDSHGFQVF	4.35 / 4.57 / ND	4.46	2 of 9 (3.48)
EGMSLRYYYAN	GKPNRPS	SSCDSSGFQVF	3.65 / 5.63 / 2.38	3.89	2 of 9 (3.77)
EGDSIQYYYAN	GKNNRCS	SSRDSSGFQVF	2.94 / 4.02 / 4.61	3.86	6 of 9 (4.00)
EGDSLRYYYAN	GKNNRPS	SSRDSKEFQVF	2.66 / 2.96 / 1.81	2.48	1 of 9 (3.97)
EGDSLRYYYAN	DYTNRPS	SSRDSSGFQVF	3.76 / 3.51 / 3.00	3.42	1 of 9 (3.68)
EGDSLRYYYAN	GKNNRPS	WARDVSGFQVF	ND / ND / ND	ND	1 of 9 (5.41)
EGDSLRYMYAL	GTNNRPS	SSRDSSGFQVF	1.75 / 1.38 / 1.59	1.57	4 of 9 (3.89)
EGDSLRYYYAN	GKNNRPS	SSRDSSGKQCI	ND / ND / ND	ND	0 of 9
EGDSLRYYYAN	GKFNRPS	CSRDSSGFQPF	ND / ND / 3.84	3.84	0 of 9
EGWSLRYYYAN	GKNNRPS	SSRNSSGFQVV	3.52 / 4.55 / 3.03	3.70	3 of 9 (3.78)
EGDSLRYYYAN	VKNNRPS	SSRDSTGPQVF	ND / ND / 3.76	3.76	1 of 9 (3.05)
EGDSLRYYYAN	GKNNRPF	FSRDSSGFMVF	4.43 / ND / 2.89	3.66	0 of 9
EGDSLRYYYAN	GKNNRES	SSRDFSGFQVF	3.37 / 3.29 / 2.84	3.17	3 of 9 (3.95)
EGDSLRYYYAS	GKNNRPS	SSRDSSGFQPF	3.81 / 3.28 / 3.68	3.59	4 of 9 (4.09)
EGDSLDYYYAN	GMNNRQS	SSRDSSGFQVF	3.56 / ND / ND	3.56	2 of 9 (3.56)
EGISLRGYYAN	GKNNRPS	SSRDSSGFQWF	2.11 / 2.14 / 1.69	1.98	3 of 9 (3.98)
EGDSLRYYYAN	HKNNRPS	SSRDWSGFIVF	ND / 5.14 / ND	5.14	2 of 9 (3.97)
PGESLNYYYAN	GKNNRPS	SSRDSSGFQVF	3.50 / ND / 2.95	3.22	6 of 9 (3.82)
EGFSLRYYYAN	GKNNRPS	SQRDSSGFQDF	2.87 / 2.72 / 2.83	2.81	5 of 9 (3.92)
EGDSLRYYYGN	GKNNRPS	SSRDSSGFQDT	3.20 / 2.94 / 3.57	3.24	6 of 9 (3.98)
GGDSLRYYYAN	GKNNRPS	SSRDNSGFIVF	2.51 / 2.22 / 1.37	2.03	8 of 9 (3.85)
EGDSLRYYYAN	GQYNAPS	SSRDSSGFQVF	3.27 / ND / 3.39	3.33	4 of 9 (2.96)
ETDSLRDYYAN	GKNNRPH	SSRDSSGFQVF	3.33 / 2.91 / 2.52	2.92	4 of 9 (3.79)
EGDSLRYYYAN	GKNNTPS	SSRDWSQFQVF	3.69 / ND / 4.35	4.02	4 of 9 (3.96)
EGDSLRYYYAN	GKNGRPS	SNGDSSGFQVF	4.91 / ND / ND	4.91	1 of 9 (3.38)
EGCSLRYYYAN	GKNNRPS	HSRDSSGFQVF	ND / ND / ND	ND	1 of 9 (4.76)
EGDSLEYYYAN	GKNNRPF	SSRDSSNFQVF	ND / 5.32 / ND	5.32	0 of 9

A selection of 8 entries from above:

CDR-L1	CDR-L2	CDR-L3	log10 Kd (nM) by replicate	mean log10 Kd (nM)	empty controls
EGFSLRYYYAN	GKNNRPS	SQRDSSGFQDF	2.87 / 2.72 / 2.83	2.81	5 of 9 (3.92)
ETDSLRDYYAN	GKNNRPH	SSRDSSGFQVF	3.33 / 2.91 / 2.52	2.92	4 of 9 (3.79)
EGDSLEYYYAN	GKNNRPF	SSRDSSNFQVF	ND / 5.32 / ND	5.32	0 of 9
EGDSLRYYYAN	GKNNRPF	FSRDSSGFMVF	4.43 / ND / 2.89	3.66	0 of 9
EGDSLRYYYAN	GKNNLPS	SSGDSSGFQVF	ND / ND / ND	ND	0 of 9
EGDSLRYYYAN	GKNNRPS	SSRDSSCFQSL	ND / 3.28 / ND	3.28	4 of 9 (3.40)
EGDSLRYYYAN	HKNNRPS	SSRDWSGFIVF	ND / 5.14 / ND	5.14	2 of 9 (3.97)
EGDSLRYQYYN	GKNNRPS	SSRDSHGFQVF	4.35 / 4.57 / ND	4.46	2 of 9 (3.48)

As a blank, each scFv also met three strains without target: over library AAYL52, 28% of these pairings were detected, typically at 3.91 and seldom below 2.90. Also given: how often the same scFv was detected with the empty control strains, with their mean in brackets.